Test system: OVCAR-3 human ovarian cancer
Assay: i.p. OVCAR-3 tumor, i.p. treatment, survival
Conditions: treated days 1, 3, 5, 7 and 9 i.p., 12.5 mg/kg; long-term survivors not included

CC(=O)O[C@H]1C(=O)[C@@]2(C)[C@H]([C@H](OC(=O)c3ccccc3)[C@]3(O)C[C@H](OC(=O)[C@H](O)[C@@H](NC(=O)c4ccccc4)c4ccccc4)C(C)=C1C3(C)C)[C@]1(OC(C)=O)CO[C@@H]1C[C@@H]2O [Paclitaxel, reference compound]
MST Days ± SEM (n): 145 ± 8 (5) Days | Median survival time: 145 days

— US6482850B2, “Hydrolysis-promoting hydrophobic taxane derivatives” (priority 1995, dated 2002)
